# Source: US10905775B2, “Particulate constructs for release of active agents” (CELATOR PHARMACEUTICALS, INC., priority 2004, dated 2021)
# Assays:
# [1] = Nanoparticle size by dynamic light scattering (DLS); assay type: physicochemical; details: for average diameter: nanoparticles after vortex mixing of THF solution with mPEG-PCL stabilizer (12 ml/min) against water (120 ml/min); for particle stability as shown by DLS: initial concentration of conjugate in DMF 4 wt %, PEG-b-PCL (5k-5k)
# Method: A 300 mM sucrose solution is prepared, loaded into a 100 ml gas tight syringe, and fixed on a second syringe pump. […] At the mixer outlet, two samples are collected. The first sample is collected in a scintillation vial and analyzed for particle size by dynamic light scattering (DLS), and the second sample is collected in low temperature freezer vials, and freeze-dried. The freeze-drying cycle is the following: −40° C. overnight, −10° C. for a day, 4° C. for a day, and then room temperature for one day. […] The samples are checked visually for crystals/aggregates formation. […] A freeze-dried sample is dissolved in methanol to dissociate the nanoparticles, and the solution is tested for the presence of THF using CGC. Particle size may be determined by DLS. […] The sample collected in a scintillation vial from the mixer effluent is inserted into the DLS sample cell containing decalin scintillation fluid (maintained at 25° C. using a temperature bath), and left to equilibrate to the cell temperature. The run duration is 60 seconds, replicated three times. The particle size expressed as the hydrodynamic diameter is obtained using an ALV 5000 correlator and a second order cumulant fit.
# [2] = Visual check / description of nanoparticle samples for crystals, aggregates, stability; assay type: physicochemical; details: nanoparticles stabilized with mPEG5-PCL7, visual observation
# Method: A 300 mM sucrose solution is prepared, loaded into a 100 ml gas tight syringe, and fixed on a second syringe pump. […] At the mixer outlet, two samples are collected. The first sample is collected in a scintillation vial and analyzed for particle size by dynamic light scattering (DLS), and the second sample is collected in low temperature freezer vials, and freeze-dried. The freeze-drying cycle is the following: −40° C. overnight, −10° C. for a day, 4° C. for a day, and then room temperature for one day. […] The samples are checked visually for crystals/aggregates formation. […] A freeze-dried sample is dissolved in methanol to dissociate the nanoparticles, and the solution is tested for the presence of THF using CGC.
substance,measurement,setting,value
PCL-paclitaxel [paclitaxel-PCL],nanoparticles size after 60 hours,"[1]; mPEG5-PCL6 stabilized nanoparticles, 60 hours",93 nm
same,average diameter,[1]; DLS,75 nm
Rifampicin-VitES,particle stability as shown by DLS,[1],stable
estradiol-VitES,duration of nanoparticle stability,[1]; 3:1 molar ratio of VitES to estradiol-VitES,> 30 days
same,increase in radius over the course of 48 hours,"[1]; estradiol-VitES with mPEG-PCL, CIJ mixer, DLS",less than 10%
paclitaxel-VitES,nanoparticles size after 17 hours,"[1]; mPEG5-PCL7 stabilized nanoparticles, 17 hours",134 nm
same,average diameter,[1]; DLS,126 nm
same,visible crystals or aggregates in the sample,[2],No visible crystals or aggregates were observed
rifampicin-PCL,particle stability as shown by DLS,[1],stable
